# NALP1 yeast inh: NALP1 inhibition. inhibition, % at 10 µM. S. cerevisiae NALP1/ASC/caspase-1 growth, X-gal OD620, 72 h. 280,000 compounds, 0.61% hits. AID 2071; in the data active means inhibition mostly above about 24%, no sharp cut-off; inactive means mostly below about 32%
# MC4R barr agon: human MC4R agonism via beta-arrestin; P32245; U2OS MC4R beta-arrestin complementation, luminescence; percent of melanotan II response, DMSO zero; activation, % at 8.9 µM; 360,000 compounds, 0.98% hits; AID 540308;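 active means activation above a per-plate cutoff, the mean activation of sample wells on that plate plus 3 SD, cut at about 8% in these data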
# ALR H2O2 inh: human ALR oxidase inhibition via reduced H2O2. 290,000 tested, 3.8% active. AID 485317. purified ALR, DTT oxidation, H2O2 HRP-luminol luminescence. inhibition, % (test concentration not listed). P55789;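 active = mean and each replicate at 75% or more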;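 also: stock transfer was 7.5 nL into about 7.5 µL; 0% = neutral wells and 100% = wells with inactivated enzyme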
# UUG fidelity: alters start codon recognition fidelity in yeast. S. cerevisiae UUG-firefly luciferase reporter, luminescence/redox ratio. 350,000 tested, 0.13% active. activity score, % at 18.7 µM. AID 602363;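 active means replicate mean at a twofold rise or more, about +100% in these data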;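 further: firefly luciferase made from a UUG start codon reports start codon fidelity; reporter light over untreated wells divided by growth signal over untreated wells; some hits fall short of that in this replicate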
# MC4R antagonist: human MC4R antagonism in cAMP assay. 360,000 compounds, 0.48% hits. AID 540295. P32245. inhibition, % at 6.5 µM. MC4R-expressing cells, MTII-stimulated cAMP, LANCE TR-FRET;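 active means inhibition above its plate's cutoff, the mean of tested wells on that plate plus 3 SD, cut at about 29% in these data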;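 further: 0% = Melanotan II alone and 100% = Melanotan II plus saturating MCL0020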
#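 System: U2OS cells stably expressing human melanocortin 4 receptor (MC4R). Reagent: Melanotan II challenge after compound preincubation. Doses: 6.5 µM. Times: 30-min compound, 1-h challenge, 1-h detection, room temperature. Measured by: TR-FRET with Eu-cAMP and labeled anti-cAMP, 671 nm. Replicates: singlicate.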
# HDAC3 inhib: blocks human histone deacetylase 3; recombinant HDAC3, fluorogenic peptide/trypsin coupled, fluorescence; inhibition, % at 8.3 µM; AID 2718; 320,000 compounds, 0.15% hits; in the data active means inhibition above about 26%, passing the limit was not always enough
# * = called active by the depositor; · = no result given. The list is not random: actives were taken first. Their share in the collection is about 4.2%.
1. CS(=O)(=O)Oc1ccc(/C=C2\C(=N)N3N=C(CC(=O)N4CCOCC4)SC3=NC2=O)cc1Cl
2. COc1cc(/C=C2/C(=N)N3N=C(CC(=O)N4CCOCC4)SC3=NC2=O)ccc1OC(C)c1ccccc1 (stereo not given)
3. N=C1/C(=C\c2ccc(Br)o2)C(=O)N=C2SC(CC(=O)N3CCCCC3)=NN12
4. O=C(C[C@H]1CC[C@H](NC(=O)c2cccc(F)c2)[C@@H](CO)O1)NCc1ccccc1
5. O=c1c2ccccc2cnn1Cc1n[nH]c(=S)n1C1CC2CCC1C2 (stereo not given)
6. Cc1ccc(NC(=O)COC(=O)CN2CSCC2=O)cc1C

assay / compound | 1 | 2 | 3 | 4 | 5 | 6
NALP1 yeast inh | -8 | 12 | 5 | · | · | -4
MC4R barr agon | -3 | -3 | -2 | · | -2 | -1
ALR H2O2 inh | 82* | 12 | 97* | · | 86* | 98*
UUG fidelity | 0 | 0 | -10 | -8 | · | -22
MC4R antagonist | 7 | 4 | 6 | · | 9 | -3
HDAC3 inhib | 8 | 1 | 7 | · | 0 | 5

7. C[C@H](CO)N1C[C@H](C)[C@H](CN(C)C(=O)Nc2ccccc2)Oc2ccc(NC(=O)Nc3cccc4ccccc34)cc2CC1=O
8. Cc1ccc(Nc2cc(C)c3ccc(O)cc3n2)cc1C
9. COC(=O)c1cc(Nc2cc(C)c3ccc(O)cc3n2)cc(C(=O)OC)c1
10. C[C@@H]1CN([C@@H](C)CO)C(=O)c2cc(NC(=O)c3ccncc3)ccc2O[C@H]1CN(C)Cc1ccncc1
11. Cc1ccc(NCc2ccncc2)c(Br)c1
12. Cc1c(C)[n+](=O)c2c(n1[O-])C(Br)CCC2Br (stereo not given)

assay / compound | 7 | 8 | 9 | 10 | 11 | 12
NALP1 yeast inh | · | · | · | · | 32* | 18
MC4R barr agon | · | 4 | 3 | · | 0 | -1
ALR H2O2 inh | · | 88* | -2 | · | 43 | -10
UUG fidelity | -11 | 16 | -14 | -18 | -10 | ·
MC4R antagonist | · | -7 | -16 | · | 5 | -4
HDAC3 inhib | · | · | 2 | · | 2 | 2

13. Cc1c(CBr)[n+](=O)c2c(n1[O-])C(Br)CCC2Br (stereo not given)
14. COc1ccc(/C=C(/C#N)C(=O)Nc2cccc(C)c2C)cc1C(=O)O
15. N#C/C(=C/c1cccc([N+](=O)[O-])c1)C(=O)Nc1ccccc1O
16. COc1ccc(/C=C(/C#N)C(=O)Nc2cccc([N+](=O)[O-])c2)cc1C(=O)O
17. N#C/C(=C\c1cccc([N+](=O)[O-])c1)C(=O)Nc1cccnc1
18. O=C(C[C@@H]1C=C[C@H](NC(=O)C2CC2)[C@H](CO)O1)Nc1ccccc1

assay / compound | 13 | 14 | 15 | 16 | 17 | 18
NALP1 yeast inh | 42* | 41 | · | 3 | 6 | ·
MC4R barr agon | 2 | -1 | 2 | 0 | -1 | ·
ALR H2O2 inh | -39 | 7 | 96* | 97* | 97* | ·
UUG fidelity | · | 27 | -4 | -14 | · | -14
MC4R antagonist | 5 | -1 | -3 | -2 | 22 | ·
HDAC3 inhib | 12 | 3 | 1 | -3 | -5 | ·

19. CCC(=O)Nc1ccc2c(c1)OC[C@@H](C)N(S(=O)(=O)c1cn(C)cn1)C[C@@H](C)[C@H](OC)CN(C)C2=O
20. Cc1cc2cc(CNC(=O)C3CCCC3)ccc2n1C
21. O=C(C[C@@H]1CC[C@@H]2[C@H](COC[C@@H](O)CN2C(=O)c2cnccn2)O1)NCc1ccc(F)cc1
22. C[C@@H]1CN([C@@H](C)CO)C(=O)c2cc(NC(=O)NC3CCCCC3)ccc2O[C@@H](C)CCCCO[C@H]1CN(C)C(=O)CCC(F)(F)F
23. C[C@@H]1CN([C@@H](C)CO)C(=O)Cc2cc(NS(C)(=O)=O)ccc2O[C@H]1CN(C)S(=O)(=O)c1ccc(Cl)cc1
24. CC(/C=N/n1c(-c2ccccn2)n[nH]c1=S)=C\c1ccccc1

assay / compound | 19 | 20 | 21 | 22 | 23 | 24
NALP1 yeast inh | · | 13 | · | · | · | 7
MC4R barr agon | · | -2 | · | · | · | 1
ALR H2O2 inh | · | 97* | · | · | · | 96*
UUG fidelity | 4 | 8 | -9 | 27 | -15 | -23
MC4R antagonist | · | 0 | · | · | · | 22
HDAC3 inhib | · | · | · | · | · | 6

25. CC(/C=N/n1c(-c2cc(C)[nH]n2)n[nH]c1=S)=C\c1ccco1
26. Cc1cccc(/C=N/n2c(-c3ccccn3)n[nH]c2=S)c1
27. S=c1[nH]nc(-c2ccccn2)n1/N=C/c1ccccc1
28. Cc1ccccc1/C=N/n1c(-c2ccccn2)n[nH]c1=S
29. S=c1[nH]nc(-c2ccccn2)n1/N=C/c1cccc2ccccc12
30. CC(/C=N/n1c(-c2ccc(Cl)cc2)n[nH]c1=S)=C\c1ccco1

assay / compound | 25 | 26 | 27 | 28 | 29 | 30
NALP1 yeast inh | 1 | 27 | -13 | -2 | 28 | 32
MC4R barr agon | 0 | · | -1 | 0 | 0 | 2
ALR H2O2 inh | 98* | 95* | 14 | · | 96* | 47
UUG fidelity | · | · | · | -12 | · | 1
MC4R antagonist | 10 | · | 2 | -2 | 7 | 10
HDAC3 inhib | 2 | 9 | 9 | 17 | 17 | 7

# Entries above with a nitro group on carbon:
15. N#C/C(=C/c1cccc([N+](=O)[O-])c1)C(=O)Nc1ccccc1O
16. COc1ccc(/C=C(/C#N)C(=O)Nc2cccc([N+](=O)[O-])c2)cc1C(=O)O
17. N#C/C(=C\c1cccc([N+](=O)[O-])c1)C(=O)Nc1cccnc1

assay / compound | 15 | 16 | 17
NALP1 yeast inh | · | 3 | 6
MC4R barr agon | 2 | 0 | -1
ALR H2O2 inh | 96* | 97* | 97*
UUG fidelity | -4 | -14 | ·
MC4R antagonist | -3 | -2 | 22
HDAC3 inhib | 1 | -3 | -5

# (next part)
31. C[C@@H]1CCCCO[C@@H](CN(C)C)[C@H](C)CN([C@H](C)CO)C(=O)c2cc(NC(=O)c3ccncc3)ccc2O1
32. C[C@@H]1CN([C@@H](C)CO)C(=O)Cc2cc(NC(=O)Cn3cnnn3)ccc2O[C@H]1CN(C)C
33. Nc1cccc(C(=O)Nc2ccc(N)cc2Cl)c1
34. Nc1cccc(C(=O)NCCNC(=O)c2cccc(N)c2)c1
35. Nc1ccccc1C(=O)Nc1ccc(Cl)cc1Cl
36. Nc1cccc(C(=O)Nc2ccco2)c1

assay / compound | 31 | 32 | 33 | 34 | 35 | 36
NALP1 yeast inh | · | · | 16 | 16 | 16 | 19
MC4R barr agon | · | · | -3 | -1 | 1 | 0
ALR H2O2 inh | · | · | 99* | 4 | -3 | 98*
UUG fidelity | 7 | -5 | · | -15 | 4 | -12
MC4R antagonist | · | · | 7 | 9 | -2 | 4
HDAC3 inhib | · | · | 5 | · | -10 | 4

37. Nc1ccc(NC(=O)c2cccc(C(=O)Nc3ccc(N)cc3Cl)c2)c(Cl)c1
38. COC(=O)c1ccc(C(=O)Nc2ccc(N)cc2N)cc1
39. CN1c2ccc(-c3ccccc3)cc2[C@H]2[C@H](CCN2C(=O)c2ccncc2)[C@@H]1CO
40. CC(C)NC(=O)N(C)C[C@@H]1Oc2ccc(NS(=O)(=O)c3cccs3)cc2C(=O)N([C@@H](C)CO)C[C@H]1C
41. COc1ccc(S(=O)(=O)N[C@H]2CC[C@@H](CCn3cc(-c4ccccc4F)nn3)O[C@H]2CO)cc1
42. Cc1ccc(N2C(=O)CSC2c2cccs2)cc1 (stereo not given)

assay / compound | 37 | 38 | 39 | 40 | 41 | 42
NALP1 yeast inh | 10 | 23 | · | · | · | -2
MC4R barr agon | 0 | -2 | · | · | · | -2
ALR H2O2 inh | 99* | 92* | · | · | · | 99*
UUG fidelity | -18 | 14 | -16 | -3 | 28 | -2
MC4R antagonist | -8 | -4 | · | · | · | 6
HDAC3 inhib | -11 | 0 | · | · | · | 1

43. COc1ccc(N2C(=O)CSC2c2ccncc2)cc1 (stereo not given)
44. COc1ccc(C2SCC(=O)N2c2ccc(F)cc2)cc1 (stereo not given)
45. COc1ccc(C2SCC(=O)N2c2ccc(OC)cc2)cc1 (stereo not given)
46. CC(C)CC#Cc1ccc2c(c1)O[C@@H](CN(C)C(=O)Nc1ccccc1F)[C@H](C)CN([C@@H](C)CO)S2(=O)=O
47. C[C@H](CO)N1C[C@H](C)[C@@H](CN(C)C(=O)Nc2ccc(F)cc2)Oc2c(NC(=O)NC3CCCCC3)cccc2C1=O
48. COCC(=O)N(C)C[C@H]1Oc2cc(C#CC(C)(C)O)ccc2S(=O)(=O)N([C@H](C)CO)C[C@H]1C
49. CCN(c1ccc(NC(=O)COC(=O)/C=C/c2ccco2)cc1)C(C)C

assay / compound | 43 | 44 | 45 | 46 | 47 | 48 | 49
NALP1 yeast inh | 7 | 22 | 22 | · | · | · | ·
MC4R barr agon | 0 | -2 | -3 | · | · | · | 3
ALR H2O2 inh | 99* | 99* | 41 | · | · | · | 99*
UUG fidelity | 2 | -6 | -7 | -5 | -8 | 3 | -13
MC4R antagonist | 6 | 1 | 2 | · | · | · | 11
HDAC3 inhib | 1 | 4 | 7 | · | · | · | -3

# Screening results (PubChem BioAssay)
